Assay results from patent publication US9247759B2, “Identification of human T2R receptors that respond to bitter compounds that elicit the bitter taste in compositions, and the use thereof in assays to identify compounds that inhibit (block) bitter taste in compositions and use thereof” (SENOMYX, INC., priority 2007, dated 2016).

By UniProt entry, the sequences of proteins in these tests, tags left out. Where a name states a change or a piece, a line headed by the entry shows the natural chain unless it says otherwise.
UniProt Q9NYV8: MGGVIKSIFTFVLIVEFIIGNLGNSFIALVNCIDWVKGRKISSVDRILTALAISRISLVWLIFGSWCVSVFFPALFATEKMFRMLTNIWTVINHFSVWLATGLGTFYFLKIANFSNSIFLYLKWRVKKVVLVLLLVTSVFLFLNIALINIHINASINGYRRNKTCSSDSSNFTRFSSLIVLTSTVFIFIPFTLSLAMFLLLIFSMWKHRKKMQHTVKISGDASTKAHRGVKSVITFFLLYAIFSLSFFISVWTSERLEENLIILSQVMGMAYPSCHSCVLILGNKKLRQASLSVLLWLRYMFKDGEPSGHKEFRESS

Target: hT2R14 (Homo sapiens (Human), UniProt Q9NYV8)
Assay: hT2R14 antagonist high-throughput FLIPR assay, stable cell line with G16g44, agonist aristolochic acid
Format: cell-based
Conditions: Table C
Procedure: The inventors also used the automated fluorimetric […] system FLIPR using a slightly different protocol. A HEK293 cell line stably expressing G16gust44 was transfected with a hT2R expression plasmid, 24 hours later, the cells are loaded and analyzed on FLIPR.
After a ligand is identified for a particular hT2R, a HEK293 cell line stably expressing both the hT2R and G16gust44 are generated, facilitating future screening assays to identify other ligands that activate the particular hT2R or which modulate (block or enhance) the activation of this hT2R by another bitter ligand such as a bitter compound contained in coffee. This avoids the need for transient transfection.
To identify antagonists, cell lines stably expressing hT2R8 and hT2R14, respectively, together with the promiscuous chimeric G16g44 protein were generated as described in previous patent applications. A high-throughput assay was established using the stable cell lines and FLIPR (Fluorescent Imaging Plate Reader). An agonist of hT2R8 or hT2R14 was used to activate the receptors up to 70-80% of their respective maximal activity. For hT2R8, the agonist used was andrographolide (200 […]); for hT2R14, it was aristolochic acid (3 μM). To identify antagonists, compounds with diverse chemical structures were added together with the agonist. […]

Work on O=C(O)c1ccc(CN(Cc2ccc(F)cc2)S(=O)(=O)c2ccc(O)cc2)cc1 [Example 5-107, 4-((N-(4-fluorobenzyl)-4-hydroxyphenylsulfonamido)methyl)benzoic acid] yielded an IC50 of 4.09 µM.
